Assay results: patent US20230323475A1, “TEST METHOD, OF DIVIDING BLASTIC PLASMACYTOID DENDRITIC CELL NEOPLASM (BPDCN) INTO SUBTYPES” (JAPANESE FOUNDATION FOR CANCER RESEARCH, priority 2016, published 2023)

Key:
[1] = system: BPDCN cell line PMDC05 (MYC-BPDCN); experiment: Cell survival rate (Cell Titer-Glo cell growth assay), PMDC05; type: cell-based; settings: PMDC05, 48 hours, inhibitor added at a high concentration, FIG. 6
Description: (§1) The cell lines used were 4 lines: BPDCN cell lines CAL-1 (MYC^+BPDCN; Non Patent Literature 11; obtained from Nagasaki University) and PMDC05 (MYC-BPDCN; Non Patent Literature 12; obtained from Niigata University), a positive control plasma cell neoplasm KMS12PE (obtained from JCRB Cell Bank) having the increased expression of MYC, and a negative control leukemia cell line K562 (obtained from JCRB Cell Bank) in which no MYC gene rearrangement was seen.
(§2) The CAL-1, PMDC05, or KMN12PE cells at 4000 cells/well or K562 at 1000 cells/well were inoculated to 96-well cell culture plates. […] The cell survival rates were measured using a cell growth assay kit using CTG reagent (Cell Titer-Glo, manufactured by Promega Corp.).
(§3) Aurora kinase inhibitors, albeit not agents directly suppressing MYC expression, were analyzed for their effects in the present invention. […] Each inhibitor was added from 1 nm to 10000 nM to the medium of the cells of each line. 48 hours later, the survival rates of these cells were analyzed (FIG. 10).
(§4) Each inhibitor was added in the concentration of 1 nM to 10000 nM to the 4 cell lines described above. The survival rates of these cells were analyzed 48 hours later (FIG. 11).

[2] = system: BPDCN cell line CAL-1 (MYC+BPDCN); experiment: Cell survival rate (Cell Titer-Glo cell growth assay), CAL-1; type: cell-based; settings: CAL-1, 48 hours after addition of the BET bromodomain-selective inhibitor, FIG. 6
Description: as §1, §2, §3, §4

## CCNC(=O)C[C@@H]1N=C(c2ccc(Cl)cc2)c2cc(OC)ccc2-n2c(C)nnc21 [I-BET762]
[1]
  survival rate of PMDC05: high survival rate
[2]
  survival rate of the CAL-1 cell line: sharply decreased
